{"source": "ChEMBL document CHEMBL1287773", "about": "“4-aryl piperazine and piperidine amides as novel mGluR5 positive allosteric modulators” (Bioorg Med Chem Lett, 2010)", "target": "Metabotropic glutamate receptor 5 (Rattus norvegicus) (UniProt P31424)", "assay": "Displacement of [3H]-MPEP from human mGluR5", "note": "pKi: −log10 of the molar value.", "data": [{"smiles": "N#Cc1cccc(C(=O)Nc2cc(-c3ccccc3)nn2-c2ccccc2)c1", "values": [{"measurement": "pKi", "result": 6.60}]}]}
